Experimental data as given in paper PMC9519442, “Genotype–phenotype correlations in WHIM syndrome: a systematic characterization of CXCR4^WHIM variants” (Genes and Immunity, 2022).

Protein sequences, listed by entry. Tags and fused reporters are not part of them. Chains listed by the source or under a name are the forms on record and can include a tag or linker. Residues count along the entry.
UniProt P61073, whole entry: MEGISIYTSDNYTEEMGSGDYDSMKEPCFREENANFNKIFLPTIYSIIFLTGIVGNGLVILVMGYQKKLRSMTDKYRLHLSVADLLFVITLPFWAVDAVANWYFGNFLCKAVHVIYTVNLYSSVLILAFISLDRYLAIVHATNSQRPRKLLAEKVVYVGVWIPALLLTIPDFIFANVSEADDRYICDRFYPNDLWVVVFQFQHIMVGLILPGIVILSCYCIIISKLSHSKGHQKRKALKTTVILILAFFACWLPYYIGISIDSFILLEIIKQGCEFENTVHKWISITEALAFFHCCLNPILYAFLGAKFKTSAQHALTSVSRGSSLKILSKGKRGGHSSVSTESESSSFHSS
UniProt P61073, 1-333 limits assumed: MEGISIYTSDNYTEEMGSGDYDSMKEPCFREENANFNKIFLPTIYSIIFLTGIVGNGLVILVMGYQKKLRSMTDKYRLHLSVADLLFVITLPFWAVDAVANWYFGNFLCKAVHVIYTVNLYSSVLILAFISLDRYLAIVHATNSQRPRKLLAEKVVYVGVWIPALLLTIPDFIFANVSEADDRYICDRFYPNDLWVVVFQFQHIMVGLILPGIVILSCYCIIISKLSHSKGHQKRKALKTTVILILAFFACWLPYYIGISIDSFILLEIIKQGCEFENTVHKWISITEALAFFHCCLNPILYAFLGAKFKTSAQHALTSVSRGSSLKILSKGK
UniProt P61073, 1-317 limits assumed: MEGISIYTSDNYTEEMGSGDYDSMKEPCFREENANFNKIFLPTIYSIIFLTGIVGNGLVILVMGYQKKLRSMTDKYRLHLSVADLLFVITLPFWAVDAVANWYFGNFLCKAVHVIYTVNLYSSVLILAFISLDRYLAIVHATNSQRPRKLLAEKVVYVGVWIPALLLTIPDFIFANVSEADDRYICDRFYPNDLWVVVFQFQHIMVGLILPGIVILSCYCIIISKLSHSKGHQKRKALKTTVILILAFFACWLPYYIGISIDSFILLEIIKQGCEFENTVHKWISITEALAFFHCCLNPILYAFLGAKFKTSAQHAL
CXCR4 S319C fs*24 (Homo sapiens, UniProt P61073), UniProt P61073, with tags, fused parts or gaps, stated change not applied: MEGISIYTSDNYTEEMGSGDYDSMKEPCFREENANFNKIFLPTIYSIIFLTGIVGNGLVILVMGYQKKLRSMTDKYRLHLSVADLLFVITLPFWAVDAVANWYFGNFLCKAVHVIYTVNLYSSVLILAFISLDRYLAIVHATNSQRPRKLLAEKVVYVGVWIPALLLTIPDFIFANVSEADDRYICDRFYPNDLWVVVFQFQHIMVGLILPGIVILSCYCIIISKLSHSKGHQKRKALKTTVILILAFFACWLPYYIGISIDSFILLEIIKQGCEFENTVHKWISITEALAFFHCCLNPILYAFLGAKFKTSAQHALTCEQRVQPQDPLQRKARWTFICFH
UniProt P61073, 1-335 limits assumed: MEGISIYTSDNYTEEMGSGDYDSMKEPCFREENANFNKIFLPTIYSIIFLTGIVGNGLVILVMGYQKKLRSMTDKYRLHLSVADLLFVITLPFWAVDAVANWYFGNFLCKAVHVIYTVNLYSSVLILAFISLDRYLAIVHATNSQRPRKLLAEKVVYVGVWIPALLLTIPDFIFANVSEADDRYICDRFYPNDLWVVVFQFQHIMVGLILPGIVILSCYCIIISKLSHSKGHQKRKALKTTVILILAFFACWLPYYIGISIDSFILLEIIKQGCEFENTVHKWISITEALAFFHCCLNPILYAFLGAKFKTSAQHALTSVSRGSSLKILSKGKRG
UniProt P61073, whole entry E343K: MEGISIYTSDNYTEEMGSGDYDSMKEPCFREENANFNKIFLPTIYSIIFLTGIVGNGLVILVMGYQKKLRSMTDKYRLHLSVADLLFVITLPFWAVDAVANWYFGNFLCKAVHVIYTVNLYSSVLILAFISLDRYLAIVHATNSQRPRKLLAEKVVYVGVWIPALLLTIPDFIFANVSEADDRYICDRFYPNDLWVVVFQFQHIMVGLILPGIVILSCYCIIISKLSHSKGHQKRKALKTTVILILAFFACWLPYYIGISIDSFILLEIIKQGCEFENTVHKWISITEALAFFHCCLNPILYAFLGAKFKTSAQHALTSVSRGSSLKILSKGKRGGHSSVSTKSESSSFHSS
CXCR4 S341P fs*25 (Homo sapiens, UniProt P61073), UniProt P61073, with tags, fused parts or gaps, stated change not applied: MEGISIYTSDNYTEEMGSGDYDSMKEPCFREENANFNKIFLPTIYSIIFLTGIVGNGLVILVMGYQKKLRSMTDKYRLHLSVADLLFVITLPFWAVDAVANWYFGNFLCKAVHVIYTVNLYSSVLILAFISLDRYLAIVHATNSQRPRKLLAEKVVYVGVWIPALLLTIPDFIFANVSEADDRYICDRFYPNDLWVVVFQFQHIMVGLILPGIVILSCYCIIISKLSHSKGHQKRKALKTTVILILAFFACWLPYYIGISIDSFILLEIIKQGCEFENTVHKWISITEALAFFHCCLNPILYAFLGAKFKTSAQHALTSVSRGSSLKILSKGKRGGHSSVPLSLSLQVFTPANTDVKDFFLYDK
CXCR4 T318P fs*3 (Homo sapiens, UniProt P61073), UniProt P61073, with tags, fused parts or gaps, stated change not applied: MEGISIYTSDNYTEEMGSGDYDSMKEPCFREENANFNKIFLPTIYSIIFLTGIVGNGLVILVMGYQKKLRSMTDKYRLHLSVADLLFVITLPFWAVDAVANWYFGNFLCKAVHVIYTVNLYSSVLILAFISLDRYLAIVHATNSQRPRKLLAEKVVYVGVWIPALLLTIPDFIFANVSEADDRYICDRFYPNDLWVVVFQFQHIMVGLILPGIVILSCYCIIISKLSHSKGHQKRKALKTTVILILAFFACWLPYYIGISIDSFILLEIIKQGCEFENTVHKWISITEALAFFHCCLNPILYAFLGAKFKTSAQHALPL
UniProt P61073, 1-337 limits assumed: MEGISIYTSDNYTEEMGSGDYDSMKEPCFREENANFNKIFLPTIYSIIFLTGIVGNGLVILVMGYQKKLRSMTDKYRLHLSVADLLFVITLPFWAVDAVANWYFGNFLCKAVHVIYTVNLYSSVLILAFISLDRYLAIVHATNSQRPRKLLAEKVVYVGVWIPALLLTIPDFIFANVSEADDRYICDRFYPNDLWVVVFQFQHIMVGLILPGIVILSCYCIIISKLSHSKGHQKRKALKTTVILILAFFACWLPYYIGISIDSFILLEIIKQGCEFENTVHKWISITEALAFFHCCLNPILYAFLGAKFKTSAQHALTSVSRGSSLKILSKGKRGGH
CXCR4 S324V fs*20 (Homo sapiens, UniProt P61073), UniProt P61073, with tags, fused parts or gaps, stated change not applied: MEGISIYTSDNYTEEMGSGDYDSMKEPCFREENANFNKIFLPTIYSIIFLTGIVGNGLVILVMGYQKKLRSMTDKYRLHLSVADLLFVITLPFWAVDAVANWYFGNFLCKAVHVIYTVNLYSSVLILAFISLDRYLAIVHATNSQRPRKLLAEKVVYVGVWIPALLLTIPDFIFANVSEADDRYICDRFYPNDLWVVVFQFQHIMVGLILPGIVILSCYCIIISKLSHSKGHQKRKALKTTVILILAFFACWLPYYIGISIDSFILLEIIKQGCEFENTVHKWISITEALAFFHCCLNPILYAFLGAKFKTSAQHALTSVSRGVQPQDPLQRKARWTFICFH
CXCR4 V320E fs*23 (Homo sapiens, UniProt P61073), UniProt P61073, with tags, fused parts or gaps, stated change not applied: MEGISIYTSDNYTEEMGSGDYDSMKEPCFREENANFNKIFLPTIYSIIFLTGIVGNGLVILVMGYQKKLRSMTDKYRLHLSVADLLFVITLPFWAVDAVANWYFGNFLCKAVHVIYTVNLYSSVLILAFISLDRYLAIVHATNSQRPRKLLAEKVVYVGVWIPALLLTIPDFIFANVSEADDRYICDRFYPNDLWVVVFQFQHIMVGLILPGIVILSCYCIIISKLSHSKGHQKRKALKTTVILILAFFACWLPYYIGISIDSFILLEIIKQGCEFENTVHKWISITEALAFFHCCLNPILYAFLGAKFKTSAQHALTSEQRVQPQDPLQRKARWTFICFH
CXCR4 S339C fs*4 (Homo sapiens, UniProt P61073), UniProt P61073, with tags, fused parts or gaps, stated change not applied: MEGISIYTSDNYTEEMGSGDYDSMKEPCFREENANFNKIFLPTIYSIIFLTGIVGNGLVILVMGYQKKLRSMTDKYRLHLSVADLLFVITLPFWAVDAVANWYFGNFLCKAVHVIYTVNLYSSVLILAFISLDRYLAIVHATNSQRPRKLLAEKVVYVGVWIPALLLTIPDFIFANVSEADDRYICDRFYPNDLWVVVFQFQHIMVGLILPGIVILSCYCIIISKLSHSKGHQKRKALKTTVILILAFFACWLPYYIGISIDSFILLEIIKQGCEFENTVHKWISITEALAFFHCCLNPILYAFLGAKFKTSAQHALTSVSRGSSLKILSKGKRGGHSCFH
UniProt P61073, 1-342 limits assumed: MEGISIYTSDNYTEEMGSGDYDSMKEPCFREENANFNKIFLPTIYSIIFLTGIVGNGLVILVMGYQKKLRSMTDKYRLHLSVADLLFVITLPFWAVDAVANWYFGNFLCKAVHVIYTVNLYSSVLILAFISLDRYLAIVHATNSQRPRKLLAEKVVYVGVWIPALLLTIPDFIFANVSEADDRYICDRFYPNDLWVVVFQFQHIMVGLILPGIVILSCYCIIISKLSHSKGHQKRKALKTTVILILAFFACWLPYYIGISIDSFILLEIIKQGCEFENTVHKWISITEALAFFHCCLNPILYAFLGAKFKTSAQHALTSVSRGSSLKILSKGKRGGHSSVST
CXCR4 L329Q fs*13 (Homo sapiens, UniProt P61073), UniProt P61073, with tags, fused parts or gaps, stated change not applied: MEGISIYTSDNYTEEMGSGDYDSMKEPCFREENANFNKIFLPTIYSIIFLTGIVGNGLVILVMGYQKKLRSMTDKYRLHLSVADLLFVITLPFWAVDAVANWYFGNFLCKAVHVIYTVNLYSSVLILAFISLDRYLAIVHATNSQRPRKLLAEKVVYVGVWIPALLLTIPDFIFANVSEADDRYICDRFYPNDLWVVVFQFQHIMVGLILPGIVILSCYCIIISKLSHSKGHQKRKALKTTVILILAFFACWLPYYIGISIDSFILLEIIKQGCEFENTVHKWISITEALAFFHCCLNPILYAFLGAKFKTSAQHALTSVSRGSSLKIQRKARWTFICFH
CXCR4 S339F fs*6 (Homo sapiens, UniProt P61073), UniProt P61073, with tags, fused parts or gaps, stated change not applied: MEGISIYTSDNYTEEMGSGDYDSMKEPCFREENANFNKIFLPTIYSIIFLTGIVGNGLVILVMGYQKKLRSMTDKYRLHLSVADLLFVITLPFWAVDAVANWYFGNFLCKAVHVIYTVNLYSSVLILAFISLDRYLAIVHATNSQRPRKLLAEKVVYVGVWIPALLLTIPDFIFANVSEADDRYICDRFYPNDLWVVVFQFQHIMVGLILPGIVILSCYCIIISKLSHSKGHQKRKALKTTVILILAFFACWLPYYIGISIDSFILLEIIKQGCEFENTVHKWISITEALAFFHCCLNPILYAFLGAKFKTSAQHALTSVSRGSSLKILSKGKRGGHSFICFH

What was measured:
[1] = molecular target: WT CXCR4 (WT/WT Jurkat cells) (Homo sapiens, UniProt P61073); details: read-out: Chemotaxis (mavorixafor) IC50; Jurkat WT/WT (C3); migration towards 0.4 nM CXCL12; ± SE
[2] = molecular target: T1, R334X/WT CXCR4 (RX/WT Jurkat cells) (Homo sapiens, UniProt P61073); experiment: Transwell chemotaxis assay, Jurkat cells; type: cell-based; details: Jurkat RX/WT (B2); migration towards 0.4 nM CXCL12; ± SE; read-out: Chemotaxis (mavorixafor) IC50
T1 construct: cells endogenously expressing WT, R334X/WT or R334X/R334X CXCR4 at similar levels; endogenous in cells; host or cells: Jurkat E6-1 clone B2 (CRISPR-Cas9 edited, made at Applied StemCell)

all CXCR4^WHIM variants = all CXCR4^WHIM variants (Homo sapiens, UniProt P61073); experiment: Ca2+ mobilization assay, K562 cells, pooled over variants; type: cell-based; details: 10 nM CXCL12, read-out: IC50 of mavorixafor, Ca2+ mobilization, range over variants
Procedure: (§1) Stable K562 clones expressing CXCR4 (1 × 10^5 cells/well) were seeded in black 96-well plates with transparent bottom coated with poly-L-lysine (BioCoat®, Corning) and serum-starved for 24 h. Medium was removed and cells were loaded with 100 µl of fluo-4 AM (3 µM, Invitrogen) dye solution for 45 min at 37 °C. Dye solution was prepared by diluting fluo-4 powder in DMSO + 10% Pluronic F127 (Thermo Fisher Scientific, Waltham, Massachusetts, USA) to 3 mM and then preparing the final dilution in assay buffer (HBSS with Ca^2+ and Mg^2+, 20 mM HEPES, 0.375 g/l NaHCO3, 0.1% BSA + 0.77 g/L probenecid [Thermo Fisher Scientific]). Subsequently, 100 µl of assay buffer alone or assay buffer with compound dilutions was added and the plates were equilibrated in the plate reader for an additional 20 min at 37 °C. […] CXCL12 was injected with a simultaneous measurement of fluorescent signal (FlexStation® 3 Multi-Mode Microplate Reader; Molecular Devices, San Jose, California, USA). Raw traces were analyzed in SoftMax Pro 7 Software (Molecular Devices). The arbitrary units were calculated as the difference between maximal and minimal signal after treatment injection, normalized to the baseline signal before injection. Maximal effect (Emax) and half-maximal effective and inhibitory concentrations (EC50 and IC50, respectively) were calculated in Prism (GraphPad Software, San Diego, California, USA).

[3] = molecular target: T2, R334X/R334X CXCR4 (RX/RX Jurkat cells) (Homo sapiens, UniProt P61073); experiment: Ca2+ mobilization assay, Jurkat cells; type: cell-based; set-up: a cellular model of homozygous and heterozygous R334X CXCR4 in an endogenous locus; host or cells: Jurkat (E6-1, ATCC), CRISPR-Cas9 clones A3 and B5 (RX/RX); details: stimulated with 100 nM CXCL12, ± SE, read-out: Ca2+ mobilization (mavorixafor) IC50
Procedure: as §1

CXCR4 S319C fs*24 = molecular target: T3, CXCR4 S319C fs*24 (Homo sapiens, UniProt P61073); experiment: Ca2+ mobilization assay, K562 cells with stable CXCR4 expression; type: cell-based; details: K562 stable S319C fs*24; preincubated with mavorixafor, then 10 nM CXCL12
T3 construct: expressed in transfected cells; host or cells: K562
Procedure: (§2) Stable K562 clones expressing CXCR4 (1 × 10^5 cells/well) were seeded in black 96-well plates with transparent bottom coated with poly-L-lysine (BioCoat®, Corning) and serum-starved for 24 h. Medium was removed and cells were loaded with 100 µl of fluo-4 AM (3 µM, Invitrogen) dye solution for 45 min at 37 °C. Dye solution was prepared by diluting fluo-4 powder in DMSO + 10% Pluronic F127 (Thermo Fisher Scientific, Waltham, Massachusetts, USA) to 3 mM and then preparing the final dilution in assay buffer (HBSS with Ca^2+ and Mg^2+, 20 mM HEPES, 0.375 g/l NaHCO3, 0.1% BSA + 0.77 g/L probenecid [Thermo Fisher Scientific]). Subsequently, 100 µl of assay buffer alone or assay buffer with compound dilutions was added and the plates were equilibrated in the plate reader for an additional 20 min at 37 °C. Jurkat cells (3 × 10^5 cells/well) were incubated with the Screen Quest Calbryte-520 Probenecid-Free and Wash-Free Calcium Assay Kit (AAT Bioquest, Sunnyvale, California, USA) according to manufacturer’s instructions. CXCL12 was injected with a simultaneous measurement of fluorescent signal (FlexStation® 3 Multi-Mode Microplate Reader; Molecular Devices, San Jose, California, USA). Raw traces were analyzed in SoftMax Pro 7 Software (Molecular Devices). The arbitrary units were calculated as the difference between maximal and minimal signal after treatment injection, normalized to the baseline signal before injection. Maximal effect (Emax) and half-maximal effective and inhibitory concentrations (EC50 and IC50, respectively) were calculated in Prism (GraphPad Software, San Diego, California, USA).

CXCR4 G336X = molecular target: T4, CXCR4 G336X (Homo sapiens, UniProt P61073); experiment: as above; type: cell-based; details: preincubated with mavorixafor, then 10 nM CXCL12
T4 construct: expressed in transfected cells; host or cells: K562
Procedure: as §2

CXCR4 E343K = molecular target: T5, CXCR4 E343K (Homo sapiens, UniProt P61073, E343K); experiment: as above; type: cell-based; details: preincubated with mavorixafor, then 10 nM CXCL12
T5 construct: expressed in transfected cells; host or cells: K562
Procedure: as §2

CXCR4 S341P fs*25 = molecular target: T6, CXCR4 S341P fs*25 (Homo sapiens, UniProt P61073); experiment: as above; type: cell-based; details: K562 stable S341P fs*25; preincubated with mavorixafor, then 10 nM CXCL12
T6 construct: expressed in transfected cells; host or cells: K562
Procedure: as §2

CXCR4 T318P fs*3 = molecular target: T7, CXCR4 T318P fs*3 (Homo sapiens, UniProt P61073); experiment: as above; type: cell-based; details: K562 stable T318P fs*3; preincubated with mavorixafor, then 10 nM CXCL12
T7 construct: expressed in transfected cells; host or cells: K562
Procedure: as §2

CXCR4 S338X = molecular target: T8, CXCR4 S338X (Homo sapiens, UniProt P61073); experiment: as above; type: cell-based; details: preincubated with mavorixafor, then 10 nM CXCL12
T8 construct: expressed in transfected cells; host or cells: K562
Procedure: as §2

CXCR4 S324V fs*20 = molecular target: T9, CXCR4 S324V fs*20 (Homo sapiens, UniProt P61073); experiment: as above; type: cell-based; details: K562 stable S324V fs*20; preincubated with mavorixafor, then 10 nM CXCL12
T9 construct: expressed in transfected cells; host or cells: K562
Procedure: as §2

WT CXCR4 = molecular target: T10, WT CXCR4 (Homo sapiens, UniProt P61073); experiment: as above; type: cell-based; details: preincubated with mavorixafor, then 10 nM CXCL12
T10 construct: cloned into pcDNA3.1(Hygro+) via NheI/EcoRV to give pcDNA3.1_CXCR4; expressed in transfected cells; host or cells: K562
Procedure: as §2

CXCR4 V320E fs*23 = molecular target: T11, CXCR4 V320E fs*23 (Homo sapiens, UniProt P61073); experiment: as above; type: cell-based; details: K562 stable V320E fs*23; preincubated with mavorixafor, then 10 nM CXCL12
T11 construct: expressed in transfected cells; host or cells: K562
Procedure: as §2

CXCR4 S339C fs*4 = molecular target: T12, CXCR4 S339C fs*4 (Homo sapiens, UniProt P61073); experiment: as above; type: cell-based; details: K562 stable S339C fs*4; preincubated with mavorixafor, then 10 nM CXCL12
T12 construct: expressed in transfected cells; host or cells: K562
Procedure: as §2

CXCR4 E343X = molecular target: T13, CXCR4 E343X (Homo sapiens, UniProt P61073); experiment: as above; type: cell-based; details: preincubated with mavorixafor, then 10 nM CXCL12
T13 construct: expressed in transfected cells; host or cells: K562
Procedure: as §2

CXCR4 L329Q fs*13 = molecular target: T14, CXCR4 L329Q fs*13 (Homo sapiens, UniProt P61073); experiment: as above; type: cell-based; details: K562 stable L329Q fs*13; preincubated with mavorixafor, then 10 nM CXCL12
T14 construct: expressed in transfected cells; host or cells: K562
Procedure: as §2

CXCR4 S339F fs*6 = molecular target: T15, CXCR4 S339F fs*6 (Homo sapiens, UniProt P61073); experiment: as above; type: cell-based; details: K562 stable S339F fs*6; preincubated with mavorixafor, then 10 nM CXCL12
T15 construct: expressed in transfected cells; host or cells: K562
Procedure: as §2

[4] = molecular target: T2, R334X/R334X CXCR4 (RX/RX Jurkat cells); experiment: cell-based; details: migration towards 0.4 nM CXCL12, ± SE
[5] = molecular target: T2, R334X/R334X CXCR4 (RX/RX Jurkat cells); experiment: cell-based; details: AF647-CXCL12, ± SE
[6] = molecular target: T1, R334X/WT CXCR4 (RX/WT Jurkat cells); experiment: Ca2+ mobilization assay, Jurkat cells; type: cell-based; details: Jurkat RX/WT (B2); stimulated with 100 nM CXCL12; ± SE; read-out: Ca2+ mobilization (mavorixafor) IC50
Procedure: as §2

[7] = molecular target: T16, WT CXCR4 (parental and WT/WT Jurkat cells) (Homo sapiens, UniProt P61073); experiment: Ca2+ mobilization assay, Jurkat cells; type: cell-based; details: stimulated with 100 nM CXCL12, ± SE, read-out: Ca2+ mobilization (mavorixafor) IC50
T16 construct: A Jurkat cell line (with endogenous expression of WT CXCR4); endogenous in cells; host or cells: Jurkat E6-1 (parental; clone C3 with silent edits)
Procedure: as §2

[8] = molecular target: CXCR4 (WT/WT, RX/WT, RX/RX) (Homo sapiens, UniProt P61073); experiment: Ligand binding inhibition assay (AF647-CXCL12), Jurkat cells, across all cell lines; details: read-out: Potency of inhibition of CXCL12 binding to CXCR4, range
[9] = molecular target: T1, R334X/WT CXCR4 (RX/WT Jurkat cells); experiment: Ligand binding inhibition assay (AF647-CXCL12), Jurkat cells; details: Jurkat RX/WT (B2), ± SE, read-out: CXCL12 binding inhibition (mavorixafor) IC50
[10] = molecular target: T16, WT CXCR4 (parental and WT/WT Jurkat cells); experiment: as above; details: ± SE, read-out: CXCL12 binding inhibition (mavorixafor) IC50

NCCCCN(Cc1nc2ccccc2[nH]1)[C@H]1CCCc2cccnc21 [mavorixafor]
IC50 [1]: 30 ± 10 nM
IC50 [2]: 366 ± 334 nM
IC50 (all CXCR4^WHIM variants): 7.6 to 39 nM
IC50 ([3]; Jurkat RX/RX (A3)): 5 ± 2.8 nM
IC50 ([3]; Jurkat RX/RX (B5)): 2 ± 1.2 nM
IC50 (CXCR4 S319C fs*24): 39 nM
IC50 (CXCR4 G336X): 11.8 nM
IC50 (CXCR4 E343K): 19.4 nM
IC50 (CXCR4 S341P fs*25): 18.2 nM
IC50 (CXCR4 T318P fs*3): 7.6 nM
IC50 (CXCR4 S338X): 7.7 nM
IC50 (CXCR4 S324V fs*20): 37.9 nM
IC50 (WT CXCR4): 6.3 nM
IC50 (CXCR4 V320E fs*23): 17 nM
IC50 (CXCR4 S339C fs*4): 8.6 nM
IC50 (CXCR4 E343X): 8.8 nM
IC50 (CXCR4 L329Q fs*13): 19.3 nM
IC50 (CXCR4 S339F fs*6): 26.7 nM
IC50 ([4]; Chemotaxis (mavorixafor) IC50, Jurkat RX/RX (A3)): 188 ± 20 nM
IC50 ([4]; Chemotaxis (mavorixafor) IC50, Jurkat RX/RX (B5)): 153 ± 23 nM
IC50 ([5]; CXCL12 binding inhibition (mavorixafor) IC50, Jurkat RX/RX (A3)): 2.1 ± 0.1 nM
IC50 ([5]; CXCL12 binding inhibition (mavorixafor) IC50, Jurkat RX/RX (B5)): 1.9 ± 0.15 nM
IC50 [6]: 3.4 ± 3.6 nM
IC50 ([7]; Jurkat Parental): 1.5 ± 0.9 nM
IC50 ([7]; Jurkat WT/WT (C3)): 0.7 ± 0.3 nM
IC50 [8]: 1.6 to 2.4 nM
IC50 [9]: 2.4 ± 0.07 nM
IC50 ([10]; Jurkat Parental): 1.9 ± 0.09 nM
IC50 ([10]; Jurkat WT/WT (C3)): 1.6 ± 0.12 nM
